## Apparent affinities of Ab-95 variants for a coronavirus HR2 peptide

Reference: Engelhart et al. 2022, doi:10.1038/s41597-022-01779-4. File: FLAb, binding data.

Antigen: PDVDLGDISGINAS, a 14-residue peptide of the SARS-CoV-2 spike HR2 region.

The variants keep the heavy chain, the linker and the frameworks of Ab-95 (scFv order VH, a (GGGGS)3 linker, VL).
VH: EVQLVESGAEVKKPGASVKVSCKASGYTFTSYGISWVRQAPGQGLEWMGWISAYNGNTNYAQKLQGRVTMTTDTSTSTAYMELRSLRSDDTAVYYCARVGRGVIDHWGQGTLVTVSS
VL: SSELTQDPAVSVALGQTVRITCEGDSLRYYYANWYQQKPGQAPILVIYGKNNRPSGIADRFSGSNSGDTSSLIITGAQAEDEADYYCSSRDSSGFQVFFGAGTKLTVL

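The starting antibody came from a phage panning campaign against this peptide. Library AAYL52 holds single substitutions and randomly drawn double and triple substitutions in the CDRs. AlphaSeq pools MATa yeast showing the antibodies with MATalpha yeast showing the peptide. After mating in shaken culture at 30 °C for 16 h, diploids were selected and their barcode pairs sequenced. Scores were corrected for input abundance and mapped to Kd with protein pairs of known affinity run in the same pool. There are three technical replicates.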

Variants are written as CDR1, CDR2 and CDR3 of the light chain (limits as in the source). Parent: EGDSLRYYYAN, GKNNRPS, SSRDSSGFQVF.
Each Kd is an estimate from the mating assay, the geometric mean of the replicates in which the pair was seen; lower is stronger.
An entry "not detected" has no value in the source: the pair was not observed among the diploids in any replicate. This suggests poor binding but is not conclusive.
For reference, the parent read 200 nM as the reference entry and 180 nM as a member of this library.
As a blank, each scFv also met three strains without target: over library AAYL52, 28% of these pairings were detected, typically at 8.2 µM and seldom below 800 nM. For each scFv, signals with the empty controls are counted beside the result.

| Kd (apparent) | detected | signal with controls | CDR-L1 | CDR-L2 | CDR-L3 |
|---|---|---|---|---|---|
| 120 µM | 2/3 | 1/9 | EGDSYRYYYWN | GKNNRPS | SSYDSSGFQVF |
| 8.3 µM | 1/3 | 1/9 | EGDQLRYYYAA | GKNNRPK | SSRDSSGFQVF |
| 2.8 µM | 3/3 | 5/9 | EGDSLFYYYAA | GKNNRPS | SSRDSSQFQVF |
| not detected | 0/3 | 2/9 | EGDSLRYWYAN | PKNNRPS | SSRDSSGFQVF |
| 23 µM | 1/3 | 1/9 | EGDSQRFYYAN | GKNNRPS | LSRDSSGFQVF |
| not detected | 0/3 | 2/9 | EGDSLRYYYAN | GKSNRPS | SSRCISGFQVF |
| not detected | 0/3 | 2/9 | AGDSSRYYYAN | GKNNRPS | SHRDSSGFQVF |
| 740 nM | 1/3 | 5/9 | EPDSLRYYYQN | GKNMRPS | SSRDSSGFQVF |
| 27 µM | 3/3 | 4/9 | EPDQLRYYYAN | GKNNRPS | SSRDSSTFQVF |
| 23 µM | 3/3 | 1/9 | ERDSLRYYYAN | GKNNRPS | SSRDSSGFQRF |
| 26 µM | 1/3 | 1/9 | EGDSWRYYYAN | FKVNRPS | SSRDSSGFQVF |
| 540 nM | 3/3 | 1/9 | ECDSLDYYYAN | GKNNRPS | SKRDSSGFQVF |
| 11 µM | 3/3 | 2/9 | EGDSLRYYYAP | GKNCRPS | SSRWSSGFQVF |
| 140 µM | 1/3 | 5/9 | QGDSLRYYYAR | GKNNRPS | SSRDSSDFQVF |
| 6.9 µM | 2/3 | 3/9 | EGDSLRYYYAN | GFNNAPS | SSRDSSGFQVF |
| 42 µM | 2/3 | 1/9 | EGDSGRYYYAK | GKNNRPW | SSRDSSGFQVF |
| 50 µM | 2/3 | 6/9 | EGDSLRYYYAY | GKHNRPS | DSRDSSGFQVF |
| 13 µM | 2/3 | 1/9 | EGDSLRYYYAE | GFNNRPS | SSRDSSWFQVF |
| not detected | 0/3 | 2/9 | EGDSLRPYYAN | GKNNRPS | LSRDSSGDQVF |
| 360 nM | 3/3 | 3/9 | EGDSLRGYYAN | GKNNRPS | SSRFSGGFQVF |
| 4.0 µM | 3/3 | 4/9 | EGDSLRYYYAN | GKNRRVS | SSRDSSGFQMF |
| 2.2 µM | 2/3 | 1/9 | EGDSMRYYYCN | GKNNRPS | SGRDSSGFQVF |
| 1.7 µM | 1/3 | 0/9 | EGDSLRYYHAH | GKNNRPS | SSRDSSGFQVY |
| not detected | 0/3 | 3/9 | EGDCLRYNYAN | GKNNRPS | SSRYSSGFQVF |
| 12 µM | 2/3 | 5/9 | EGDSLRYYYSN | AKNNRPS | SSRDSAGFQVF |
| 3.0 µM | 1/3 | 1/9 | EGDSLTYYYAN | GKNNRVS | SSRDSSGFQVA |
| not detected | 0/3 | 3/9 | EGDSLRYYYAN | GKNNRPS | SSDCSSQFQVF |
| 1.3 µM | 3/3 | 3/9 | EGDSLRYCYAN | GKENRPS | STRDSSGFQVF |
| 2.7 µM | 2/3 | 7/9 | EGDCLRYYYDN | GKNNGPS | SSRDSSGFQVF |
| 20 µM | 2/3 | 2/9 | EYDRLRYYYAN | GKNNLPS | SSRDSSGFQVF |
| 460 µM | 2/3 | 5/9 | EIDSLRYYYAD | GKNNRPS | SSRDSSGFCVF |
| 9.5 µM | 3/3 | 2/9 | EGDSLRYYYAN | GKNNCPS | SSEDHSGFQVF |
| 15 µM | 2/3 | 1/9 | EGDSLCYYYAN | WENNRPS | SSRDSSGFQVF |
| 110 µM | 2/3 | 5/9 | EGQSLRYMYAN | GKNNRPS | SSRPSSGFQVF |
| 12 µM | 3/3 | 3/9 | EGDSLRYYYAN | GVNNRPW | SSRDSSGFDVF |
| 3.2 µM | 1/3 | 0/9 | WGDSLRYYYAN | GKNNRPS | SSRDSSGFVVQ |
| 8.6 µM | 1/3 | 2/9 | EGDSLRYYYAN | GKNNRRS | SSNDSSGFPVF |
| 150 nM | 3/3 | 4/9 | EGDSLRYYTAN | GKNNRPS | SSRDSVGFQVF |
| 4.2 µM | 2/3 | 2/9 | ECDELRYYYAN | GCNNRPS | SSRDSSGFQVF |
| 350 nM | 3/3 | 4/9 | MGDSLRYYYAN | GKNERPS | SSRDDSGFQVF |
| 210 µM | 1/3 | 3/9 | EGDSERYYYAN | GKNNRPS | SSRDMSGFLVF |
| 12 µM | 1/3 | 2/9 | IGDSLRYYYAR | GKNNRPS | ISRDSSGFQVF |
| 5.1 µM | 3/3 | 0/9 | EGDSLRWYYAN | GKNNRPS | SSRDSMMFQVF |
| 1.8 µM | 3/3 | 3/9 | EGESLRYYYAN | GWNNRPS | SSRDSSGSQVF |
| 1.9 µM | 3/3 | 4/9 | LGDSLRYYYAN | GKNNRPS | SSRDSSGMPVF |
| 12 µM | 2/3 | 3/9 | KGDSLRYYYKN | GKNNRPS | SSRDKSGFQVF |
| 5.7 µM | 1/3 | 4/9 | EGDILLYYYAN | GKNNRPS | SSRDSSHFQVF |
| 8.6 µM | 2/3 | 5/9 | EGDSGRYIYAN | FKNNRPS | SSRDSSGFQVF |
| 340 nM | 3/3 | 5/9 | EGDSLRYYYAN | GKNNRPS | SSRDSSGRQWF |
| 60 µM | 1/3 | 1/9 | EGDSLRYYYAE | GKNNRPS | SYRDSDGFQVF |
| 16 µM | 2/3 | 2/9 | EGDSLRYYYAH | PKNNRPS | SSFDSSGFQVF |
| 11 µM | 2/3 | 1/9 | EGDSLRYYYAN | GKNNRKS | SSEDSSGCQVF |
| 960 nM | 3/3 | 6/9 | EGSFLRYYYAN | GKNNRPS | STRDSSGFQVF |
| 3.4 µM | 1/3 | 0/9 | IGDSLRYYRAN | GKNNRPS | SSRQSSGFQVF |
| 43 µM | 2/3 | 0/9 | EGDSLRYYYAN | GCNNNPS | SSRDSSCFQVF |
| 30 µM | 2/3 | 1/9 | EGDSLRYQYAN | GWNNRPS | SSQDSSGFQVF |

The closing 6 entries, repeated:

{"CDR-L1": "EGDSLRYYYAH", "CDR-L2": "PKNNRPS", "CDR-L3": "SSFDSSGFQVF", "Kd (apparent)": "16 µM", "detected": "2/3", "signal with controls": "2/9"}
{"CDR-L1": "EGDSLRYYYAN", "CDR-L2": "GKNNRKS", "CDR-L3": "SSEDSSGCQVF", "Kd (apparent)": "11 µM", "detected": "2/3", "signal with controls": "1/9"}
{"CDR-L1": "EGSFLRYYYAN", "CDR-L2": "GKNNRPS", "CDR-L3": "STRDSSGFQVF", "Kd (apparent)": "960 nM", "detected": "3/3", "signal with controls": "6/9"}
{"CDR-L1": "IGDSLRYYRAN", "CDR-L2": "GKNNRPS", "CDR-L3": "SSRQSSGFQVF", "Kd (apparent)": "3.4 µM", "detected": "1/3", "signal with controls": "0/9"}
{"CDR-L1": "EGDSLRYYYAN", "CDR-L2": "GCNNNPS", "CDR-L3": "SSRDSSCFQVF", "Kd (apparent)": "43 µM", "detected": "2/3", "signal with controls": "0/9"}
{"CDR-L1": "EGDSLRYQYAN", "CDR-L2": "GWNNRPS", "CDR-L3": "SSQDSSGFQVF", "Kd (apparent)": "30 µM", "detected": "2/3", "signal with controls": "1/9"}